Assay results published in patent publication US20060135484A1, “Vesicant treatment with phenyl-thiophene type vitamin d receptor modulators” (published 2006).

Assay: Mouse hypercalcemia assay

SMILES	Mouse Hypercal [µg/kg/day]
CCc1cc(C(CC)(CC)c2ccc(C(=O)O)s2)ccc1OCC(O)C(C)(C)C (single isomer, unassigned) [Ex. 101]	12000
CCCc1cc(C(CC)(CC)c2ccc(C(=O)O)s2)ccc1OCC(O)C(C)(C)C (single isomer, unassigned) [Ex. 95]	>6000
CCC(CC)(c1ccc(CCC(O)C(C)(C)C)c(C)c1)c1cc(C)c(S(=O)(=O)NCC(=O)O)s1 (single isomer, unassigned) [Ex. 181]	>3000
